# Assay: Phase 1 human PK study (plasma zolmitriptan, N-desmethyl zolmitriptan, sumatriptan)
# Conditions: plasma N-desmethyl zolmitriptan metabolite
# Method: The final treatment administered was 3.8 mg on a 10 cm^2 patch using an applicator with 0.52 Joule of application energy in the intracutaneous microneedle system described herein. The products tested were:
# This was a single-center, open-label, randomized five-way crossover study (Part 1) followed by a sequential study of two additional treatments (Parts 2 and 3). After obtaining informed consent and establishing eligibility, each subject received each of the seven study treatments once, followed by in-clinic monitoring and extensive blood sample collection for pharmacokinetic analysis. […] Plasma samples from the initial dosing days were sent to the analytical laboratory for analysis, and tolerability for each of the dose levels was summarized. […] During Part 3, subjects received a single 3.8 mg patch (applied with a 0.52 J applicator) and also completed identical procedures to the previous dosing days. After completion of the seven dosing days, subjects were assessed one final time and dismissed from the study.
# Twenty subjects were enrolled in the study, 10 males and 10 females. The subjects mean age was 29 years±3.5 years with a mean BMI of 24.4±3.5.
# PK parameters were summarized by treatment group using descriptive statistics (arithmetic means, standard deviations, coefficients of variation, sample size, minimum, maximum, and median).
substance,measurement,value
zolmitriptan [Zolmitriptan 2.5 mg Oral Tablet],"t1/2, Mean",192.9
same,"t1/2, Median",164.6
